# In patent US20020198172A1, “Method of treating motor neuron diseases and demyelinating diseases with citicoline” (priority 1997, published 2002):
# B1: Betaseron: drug often used to treat ALS or MS (protein, UniProt P01574 22-187, looked up)
# Interferon beta: MSYNLLGFLQRSSNFQCQKLLWQLNGRLEYCLKDRMNFDIPEEIKQLQQFQKEDAALTIYEMLQNIFAIFRQDSSSTGWNETIVENLLANVYHQINHLKTVLEEKLEKEDFTRGKLMSSLHLKRYYGRILHYLKAKEYSHCAWTIVRVEILRNFYFINRLTGYLRN
# Test system: patient with chronic progressive multiple sclerosis
# Type: in vivo
# Conditions: patient history since around 1986
# Source text: Since around 1986, they have received the following course of treatments and therapies:
# Currently, they are diagnosed with chronic-progressive multiple sclerosis. They are afflicted with visual impairments, chronic fatigue, difficulty with speech articulation, tremors in the right and left hands, decreased fine motor movement in the right greater than left hands and decreased motor strength in their lower extremities. They are without weight bearing and is confined to a wheelchair. When asked what their major barriers are as far as functional abilities on a day to day basis, they place fatigue at the top of their impairment list followed by speech difficulties and decreased fine motor movement of their hands. They experienced marked spasticity of their lower extremities with the progression of their neurological condition over the course of several years and eventually resorted to a baclofen pump which was implanted in 1997. […] They receive 85 micrograms of baclofen per day.
molecule,measurement,value
B1,effect of earlier treatment on multiple sclerosis,no effect
